Experimental data: patent publication US9889093B2, “Application of andrographolide in the preparation of a pharmaceutical for treatment of inflammatory bowel disease, andrographolide enteric targeting micropellet, and method for preparation thereof” (TASLY PHARMACEUTICAL GROUP CO., LTD., priority 2013, dated 2018)

Tests used:
[1] = system: zebra fish Crohn's disease model; assay: Zebra fish Crohn's disease model (TNBS), efficacy; assay type: in vivo; details: prednisolone 10 μM in fish farm water, 48 hours
Procedure: Crohn's disease model (mainly inflammation) was built by using TNBS (2,4,6-trinitrobenzenesulfonic acid), and 30 zebra fishes were randomly divided into each treating group. […] Image analysis software was used to analyze the pictures. Moreover, the intestinal mucosal thickness, intestinal lumen diameter and intestinal lumen area were observed carefully under a microscope and the intestinal lumen diameter and intestinal lumen area were analyzed quantitatively. Therapeutical efficacy of the tested drug in zebra fish Crohn's disease was calculated in accordance with the intestinal lumen area in each group. The calculation formula was presented as follows: Therapeutical efficacy (%)=[1−(the administration group−the blank control group)/(the model group−the blank control group)]×100%
Statistically analyzed results were expressed as mean±SE. Variance analysis was used for comparison among many groups, and Dunnett's T test for comparison between two groups.

[2] = system: zebra fish Crohn's disease model; assay: Zebra fish Crohn's disease model (TNBS), efficacy; assay type: in vivo; details: prednisolone 10 μM

SMILES: C[C@]12C=CC(=O)C=C1CC[C@@H]1[C@@H]2[C@@H](O)C[C@@]2(C)[C@H]1CC[C@]2(O)C(=O)CO [prednisolone, reference compound]
- Intestinal lumen area reduced by (therapeutical efficacy) [1]: 76±9.3%
- Inflammation regression ratio ([2]; based on neutrophil infiltration): 72±4.14% and 72 ± 4.1 %
- Ratio with the blank control group ([2]; neutrophil number): 1.53 ± 0.07

Where “and” joins values, the source holds several entries; their conditions need not be identical. Equal values may be shown once.
